These results are taken from patent US10040783B2 (Emory University, priority 2011, dated 2018).

Sequences of proteins named here, by UniProt entry; tags and fusion partners are left off. A change or cut given only in a name is not applied to a line headed by its entry.
UniProt P43116: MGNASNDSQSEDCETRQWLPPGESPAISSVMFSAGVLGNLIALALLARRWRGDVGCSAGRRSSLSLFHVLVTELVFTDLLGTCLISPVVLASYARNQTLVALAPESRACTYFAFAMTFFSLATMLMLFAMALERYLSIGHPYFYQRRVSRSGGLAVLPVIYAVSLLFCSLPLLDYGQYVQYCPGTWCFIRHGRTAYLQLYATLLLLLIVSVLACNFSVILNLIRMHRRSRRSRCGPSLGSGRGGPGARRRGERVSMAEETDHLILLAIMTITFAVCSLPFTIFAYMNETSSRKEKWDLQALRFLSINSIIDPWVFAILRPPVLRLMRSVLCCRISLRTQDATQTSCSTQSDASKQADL
UniProt P35408: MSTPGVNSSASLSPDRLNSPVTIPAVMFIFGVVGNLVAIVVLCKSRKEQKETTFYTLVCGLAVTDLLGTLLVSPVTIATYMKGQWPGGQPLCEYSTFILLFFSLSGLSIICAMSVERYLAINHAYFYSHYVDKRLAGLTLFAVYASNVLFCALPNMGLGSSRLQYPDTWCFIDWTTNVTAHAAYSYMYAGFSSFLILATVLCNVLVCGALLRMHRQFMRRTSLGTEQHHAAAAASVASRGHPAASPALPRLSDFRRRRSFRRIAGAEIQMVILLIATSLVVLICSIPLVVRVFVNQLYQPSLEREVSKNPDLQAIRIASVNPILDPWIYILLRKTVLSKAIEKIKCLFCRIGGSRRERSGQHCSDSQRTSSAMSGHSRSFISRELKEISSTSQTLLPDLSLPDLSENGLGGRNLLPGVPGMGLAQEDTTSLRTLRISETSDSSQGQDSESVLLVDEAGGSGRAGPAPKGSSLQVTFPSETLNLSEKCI

Series [1] has as its system rat primary hippocampal cultures. In words: NMDA-induced LDH release (excitotoxicity) in primary hippocampal cultures. It is filed as cell-based. Conditions: read-out: NMDA-induced LDH release, % of control. An excerpt:
Excitotoxicity caused by NMDA receptor activation is recognized to induce neuronal apoptosis both in vitro and in vivo in cortical neurons. NMDA receptor activation can, via COX-2, cause prostaglandin production, including PGE2. Activation of the EP2 receptor by PGE2 in microglia can promote neuroinflammation in several models of neurodegenerative diseases. The effect of EP2 antagonist compounds were examined on NMDA-induced excitotoxicity. Rat primary hippocampal cultures (DIV13-15) were preincubated with vehicle or increasing concentrations of test compound for 15-20 min, followed by treatment with NMDA (30 μM) plus glycine (10 μM) overnight in continued presence of the test compound. Lactate dehydrogenase (LDH) release was used as the measure of neuronal injury.
A general note: LDH leaks from cells whose membrane has failed.

For series [2], the system named is IL-1β, IL-6, TNFα, CCL2, CCL3, CCL4, CXCL10 mRNA. Conditions: mouse, in vivo.
Series [3] in a line: in vitro. Conditions: rat.
In series [4] the test system is mice after pilocarpine-induced status epilepticus. Conditions: mouse, in vivo.
The target of series [5] is T1, EP2 receptor (Homo sapiens, UniProt P43116). The series is described as follows: Schild regression of PGE2-induced EP2 activation in C6G-EP2 cells. It is filed as cell-based. Also on record: expressed in transfected cells; host or cells: C6G-EP2 cells. On the procedure: (§1) Information on the modality of antagonism can be obtained by performing Schild regression analysis characterized by: log (dr−1)=log XB−log KB. In the equation, dose ratio (dr)=fold shift in EC50, XB=[antagonist], KB=equilibrium dissociation constant for the antagonist-receptor complex. […] Thus, a lower KB value indicates a higher inhibitory potency.
To perform the Schild regression, C6G-EP2 cells were incubated first with vehicle, 0.01, 0.1 or 1 μM of test compound for 5 minutes, then with increasing concentrations of PGE2 to activate the EP2 receptor.

For series [6], the system named is C6G cells. In words: CellTiter-Glo luminescent cell viability assay (cytotoxicity). In general terms: Cellular ATP, detected with luciferase, serves as a proxy for viable cell number.
The target in series [7] is EP4 receptor (Homo sapiens, UniProt P35408). In words: Schild regression analysis for EP4 receptor. It is filed as cell-based.
From the text: as §1

Series [8] has as its target T1, EP2 receptor. The series is described as follows: Butaprost-induced cAMP accumulation in PC3 cells. Also on record: PC3 cells express a substantially higher level of EP2 than DU145 and LNCap cells; endogenous in cells; host or cells: PC3 cells. Particulars: read-out: KB for inhibition of butaprost-induced cAMP accumulation. It is filed as cell-based. The text has this: PGE2/EP2 signaling has been recognized to play important roles in mediating tumor progression and tumor-associated angiogenesis.
(Changes in cAMP serve as a functional read-out for many G protein-coupled receptors.)

`COc1cc(/C=C/C(=O)NCCn2c(C(F)(F)F)cc3ccccc32)cc(OC)c1OC` [1h, N-(2-(2-(trifluoromethyl)-1H-indol-1-yl)ethyl)-3-(3,4,5-trimethoxyphenyl)acrylamide]: the activity at 10 µM in series [1] came out at 72%. For the same compound, the “Blunting of SE-induced cytokine and chemokine induction, average” value in series [2] worked out at 54%. Further, the CC50 in series [3] came to 81000 nM. In series [4], the “Leakage of plasma albumin into the cortex (Western blot)” value is “significantly prevented” and the “Status epilepticus-induced mortality rate” value is “reduced”. In series [4] (ip, 5 mg/kg), the “Reduction of SE-induced neurodegeneration in CA1” value was found to be 66%, the “Reduction of SE-induced neurodegeneration in CA3” value was determined as 52% and the “Reduction of SE-induced neurodegeneration in hilus” value was 55%. Besides, the Kb in series [5] stood at 21.4 nM.

On to `COc1cc(CCC(=O)NCCn2c(C)cc3ccccc32)cc(OC)c1OC` [1l, N-(2-(2-methyl-1H-indol-1-yl)ethyl)-3-(3,4,5-trimethoxyphenyl)propanamide], for which, in series [6], the “Therapeutic index (in vitro), CC50/KB for EP2” value is listed as 1,860. Moreover, the “Selective index, KB EP4/KB EP2” value in series [7] was 85. Besides, the Kb in series [5] (read-out: KB (nM) EP2, from Schild regression analysis) was determined as 214 nM.

With `COc1cc(C=CC(=O)NCCn2c(C)cc3ccccc32)cc(OC)c1OC` [A1, N-(2-(2-methyl-1H-indol-1-yl)ethyl)-3-(3,4,5-trimethoxyphenyl)acrylamide], the Kb in series [8] amounted to 18.1 nM.

As to `COc1cc(CC(=O)NCCn2c(C)cc3ccccc32)cc(OC)c1OC` [TG7-128], in series [5] (read-out: EP2 KB), the Kb is 680 nM.
